The test has as its target T1, GPR10 (Homo sapiens, UniProt P49683).
T1 sequence (P49683 1-370): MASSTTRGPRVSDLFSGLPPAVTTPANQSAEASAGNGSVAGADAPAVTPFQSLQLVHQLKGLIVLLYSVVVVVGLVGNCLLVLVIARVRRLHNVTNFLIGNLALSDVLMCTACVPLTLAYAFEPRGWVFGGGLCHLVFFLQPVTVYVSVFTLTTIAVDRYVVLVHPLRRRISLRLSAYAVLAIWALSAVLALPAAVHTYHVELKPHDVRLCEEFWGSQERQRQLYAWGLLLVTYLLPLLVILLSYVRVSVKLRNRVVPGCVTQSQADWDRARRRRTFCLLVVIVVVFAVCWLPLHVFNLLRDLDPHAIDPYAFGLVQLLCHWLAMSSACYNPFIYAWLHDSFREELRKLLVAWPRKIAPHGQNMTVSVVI
The experiment in a line: Beta-lactamase-dependent FRET assay (bla reporter gene) in CHO-K1 cells overexpressing GPR10. The format is cell-based. On the set-up: expressed in transfected cells; host or cells: CHO-K1. The settings on record: mean ± SEM of at least three experiments, read-out: Activation of bla reporter gene in GPR10 overexpressing cells, EC50. On the procedure: CHO-K1 cells overexpressing GPR10 were plated at 40,000 cells/well in 128 μl of assay medium (DMEM containing 10% dialyzed FBS, 0.1 mM NEAA, 25 mM HEPES, 1% penicillin/streptomycin, and 2 mM L-glutamine) in a 96-well plate and were incubated for 20 h at 37°C/5% CO2. The assay was performed according to the manufacturer's protocol.
The results from the lactamase assay were analyzed using nonlinear regression by log agonist vs. response using GraphPad software.
For orientation: In a reporter assay the amount or activity of a reporter protein is the signal.

Take `CC[C@H](C)[C@H](NC(=O)CNC(=O)[C@H](CCCNC(=N)N)NC(=O)[C@H](CO)NC(=O)[C@H](C)NC(=O)[C@H](Cc1ccc(O)cc1)NC(=O)[C@H](Cc1c[nH]c2ccccc12)NC(=O)[C@H](C)NC(=O)[C@@H]1CCCN1C(=O)[C@H](CC(N)=O)NC(=O)[C@@H](NC(=O)[C@H](CC(=O)O)NC(=O)[C@@H]1CCCN1C(=O)[C@@H](NC(=O)[C@H](CCCNC(=N)N)NC(=O)[C@@H](NC(=O)[C@H](CCC(=O)O)NC(=O)[C@H](CCSC)NC(=O)[C@H](CO)NC(=O)[C@H](Cc1c[nH]cn1)NC(=O)[C@H](CCCNC(=N)N)NC(=O)[C@H](Cc1c[nH]cn1)NC(=O)[C@@H](NC(=O)[C@H](CCCNC(=N)N)NC(=O)[C@@H](N)CO)[C@@H](C)O)[C@@H](C)CC)[C@@H](C)O)[C@@H](C)CC)C(=O)N[C@@H](CCCNC(=N)N)C(=O)N1CCC[C@H]1C(=O)N[C@H](C(=O)NCC(=O)N[C@@H](CCCNC(=N)N)C(=O)N[C@@H](Cc1ccccc1)C(N)=O)C(C)C` [human PrRP31, reference compound]: the 50% effective concentration (EC50) (in general, the concentration needed to bring the measured effect to its halfway point) is 0.243 ± 0.05 nM.
